# Source: US10878939B2, “Methods and compositions for personalized pain management” (Children's Hospital Medical Center, priority 2014, dated 2020)
# Legend:
# [1] = test system: children undergoing tonsillectomy; test: Opioid-related adverse effects and PACU stay by sex, age and morphine dose (Example 6)
# [2] = test system: children undergoing tonsillectomy; test: Respiratory depression and prolonged PACU stay due to RD by ABCB1 genotype (Example 7)
smiles,measurement,setting,value
CN1CC[C@]23c4c5ccc(O)c4O[C@H]2[C@@H](O)C=C[C@H]3[C@H]1C5 [morphine],"RD, number of cases","[1]; F, All",20
same,"RD, number of cases","[1]; F, OSA Yes",11
same,"RD, number of cases (%)","[1]; F, total morphine 0.2-<0.3 mg/kg",3 (6)
same,"RD, number of cases (%)","[1]; F, total morphine <0.2 mg/kg",5 (12)
same,"RD, number of cases","[1]; M, All",18
same,RD %,"[2]; Blacks, ABCB1 rs1045642 CC, N=27",22%
same,RD %,"[2]; Blacks, ABCB1 rs1045642 TC, N=14",43%
same,RD %,"[2]; Blacks, ABCB1 rs1045642 TT, N=3",33%
same,RD %,"[2]; Blacks, ABCB1 rs1128503 CC, N=24",21%
same,RD %,"[2]; Blacks, ABCB1 rs1128503 TC, N=18",39%
same,RD %,"[2]; Blacks, ABCB1 rs1128503 TT, N=2",50%
same,RD %,"[2]; Blacks, ABCB1 rs2032582 GA, N=1",0%
same,RD %,"[2]; Blacks, ABCB1 rs2032582 GG, N=35",26%
same,RD %,"[2]; Blacks, ABCB1 rs2032582 GT, N=8",50%
same,RD %,"[2]; Blacks, ABCB1 rs2229109 CA, N=1",0%
same,RD %,"[2]; Blacks, ABCB1 rs2229109 CC, N=43",30%
same,RD %,"[2]; Blacks, ABCB1 rs9282564 AA, N=41",27%
same,RD %,"[2]; Blacks, ABCB1 rs9282564 GA, N=3",67%
same,RD %,"[2]; Whites, ABCB1 rs1045642 CC, N=49",16%
same,RD %,"[2]; Whites, ABCB1 rs1045642 TC, N=100",19%
same,RD %,"[2]; Whites, ABCB1 rs1045642 TT, N=70",16%
same,RD %,"[2]; Whites, ABCB1 rs1128503 CC, N=70",23%
same,RD %,"[2]; Whites, ABCB1 rs1128503 TC, N=102",17%
same,RD %,"[2]; Whites, ABCB1 rs1128503 TT, N=47",11%
same,RD %,"[2]; Whites, ABCB1 rs2032582 GA, N=7",29%
same,RD %,"[2]; Whites, ABCB1 rs2032582 GG, N=65",20%
same,RD %,"[2]; Whites, ABCB1 rs2032582 GT, N=100",18%
same,RD %,"[2]; Whites, ABCB1 rs2032582 TA, N=1",0%
same,RD %,"[2]; Whites, ABCB1 rs2032582 TT, N=46",11%
same,RD %,"[2]; Whites, ABCB1 rs2229109 CA, N=14",36%
same,RD %,"[2]; Whites, ABCB1 rs2229109 CC, N=205",16%
same,RD %,"[2]; Whites, ABCB1 rs9282564 GA, N=46",17%
same,RD %,"[2]; Whites, ABCB1 rs9282564 GG, N=2",100%
